{
  "sequences": {"note": "Chains of the proteins cited; added tags and fusions are not shown. A line that says so, or that is headed by a name, gives the form on record, which may keep a tag or linker. Residues count along the entry.", "UniProt P35353, 24-415 limits assumed": "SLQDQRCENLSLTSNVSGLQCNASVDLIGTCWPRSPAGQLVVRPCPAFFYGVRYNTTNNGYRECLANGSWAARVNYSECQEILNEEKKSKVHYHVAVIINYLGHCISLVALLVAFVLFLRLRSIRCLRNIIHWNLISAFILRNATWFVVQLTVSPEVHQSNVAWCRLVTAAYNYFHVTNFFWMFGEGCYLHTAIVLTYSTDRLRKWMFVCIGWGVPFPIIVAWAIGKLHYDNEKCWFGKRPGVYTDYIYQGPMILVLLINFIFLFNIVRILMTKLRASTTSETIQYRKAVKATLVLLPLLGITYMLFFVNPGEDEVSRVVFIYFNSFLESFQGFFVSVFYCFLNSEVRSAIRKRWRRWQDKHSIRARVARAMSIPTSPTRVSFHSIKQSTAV", "UniProt A0A8I3PB95, 31-437 limits assumed": "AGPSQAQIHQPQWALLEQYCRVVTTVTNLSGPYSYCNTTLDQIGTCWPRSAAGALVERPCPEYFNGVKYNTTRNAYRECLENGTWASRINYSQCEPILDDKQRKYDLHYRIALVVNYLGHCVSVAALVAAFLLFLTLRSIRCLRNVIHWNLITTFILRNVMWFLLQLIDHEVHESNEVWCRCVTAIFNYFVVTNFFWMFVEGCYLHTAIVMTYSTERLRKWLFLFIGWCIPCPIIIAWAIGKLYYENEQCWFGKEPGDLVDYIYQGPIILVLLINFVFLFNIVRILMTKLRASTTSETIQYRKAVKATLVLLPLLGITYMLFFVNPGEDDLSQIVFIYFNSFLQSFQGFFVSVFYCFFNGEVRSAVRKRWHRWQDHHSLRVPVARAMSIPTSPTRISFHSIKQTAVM", "UniProt A0A8I3PHA9, 24-415 limits assumed": "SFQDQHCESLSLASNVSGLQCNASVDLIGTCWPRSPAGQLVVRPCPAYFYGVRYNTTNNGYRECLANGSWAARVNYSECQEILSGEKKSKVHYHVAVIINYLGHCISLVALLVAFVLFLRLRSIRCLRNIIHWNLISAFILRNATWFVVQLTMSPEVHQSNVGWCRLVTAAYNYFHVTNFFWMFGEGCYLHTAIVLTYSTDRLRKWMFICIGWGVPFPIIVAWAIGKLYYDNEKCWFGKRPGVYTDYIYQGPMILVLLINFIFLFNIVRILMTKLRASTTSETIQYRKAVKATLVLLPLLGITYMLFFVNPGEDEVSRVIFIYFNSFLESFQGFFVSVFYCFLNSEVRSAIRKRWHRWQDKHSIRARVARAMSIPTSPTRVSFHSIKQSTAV", "UniProt Q13324, whole entry": "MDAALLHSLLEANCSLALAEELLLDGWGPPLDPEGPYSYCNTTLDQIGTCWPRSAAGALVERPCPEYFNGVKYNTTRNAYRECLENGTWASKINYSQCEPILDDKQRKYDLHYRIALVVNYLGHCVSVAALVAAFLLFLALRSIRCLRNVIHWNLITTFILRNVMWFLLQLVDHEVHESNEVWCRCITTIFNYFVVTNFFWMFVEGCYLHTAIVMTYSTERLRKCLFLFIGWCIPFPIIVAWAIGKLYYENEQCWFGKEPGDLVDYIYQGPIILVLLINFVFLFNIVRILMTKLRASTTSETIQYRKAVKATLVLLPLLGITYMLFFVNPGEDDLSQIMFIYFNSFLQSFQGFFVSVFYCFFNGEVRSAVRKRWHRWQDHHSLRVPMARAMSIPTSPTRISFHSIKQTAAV", "UniProt Q13324, 1-397 with tags or gaps": "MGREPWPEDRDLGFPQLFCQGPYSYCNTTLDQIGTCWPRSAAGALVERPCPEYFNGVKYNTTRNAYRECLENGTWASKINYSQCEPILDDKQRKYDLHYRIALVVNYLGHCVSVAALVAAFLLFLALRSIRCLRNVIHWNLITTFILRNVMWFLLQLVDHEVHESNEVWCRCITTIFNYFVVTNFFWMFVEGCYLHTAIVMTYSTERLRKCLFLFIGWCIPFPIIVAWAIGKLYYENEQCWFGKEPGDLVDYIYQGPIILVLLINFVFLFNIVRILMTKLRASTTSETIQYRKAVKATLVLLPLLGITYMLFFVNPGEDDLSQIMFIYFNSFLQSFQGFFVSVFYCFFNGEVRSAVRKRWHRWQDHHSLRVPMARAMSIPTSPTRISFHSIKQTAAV", "UniProt A0A2K5WS31, 30-431 limits assumed": "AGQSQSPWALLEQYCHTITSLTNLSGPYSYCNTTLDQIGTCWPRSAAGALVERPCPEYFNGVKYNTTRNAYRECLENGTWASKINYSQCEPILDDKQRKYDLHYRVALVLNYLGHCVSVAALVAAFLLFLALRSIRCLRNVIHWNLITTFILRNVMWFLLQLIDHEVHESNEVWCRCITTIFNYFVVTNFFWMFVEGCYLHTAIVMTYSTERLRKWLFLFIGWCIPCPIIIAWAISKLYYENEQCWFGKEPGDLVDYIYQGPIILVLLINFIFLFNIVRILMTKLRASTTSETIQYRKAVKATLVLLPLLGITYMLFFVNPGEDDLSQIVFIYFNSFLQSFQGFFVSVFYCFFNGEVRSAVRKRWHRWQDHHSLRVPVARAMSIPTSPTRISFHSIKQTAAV", "UniProt A0A2K5WPT1, 24-415 limits assumed": "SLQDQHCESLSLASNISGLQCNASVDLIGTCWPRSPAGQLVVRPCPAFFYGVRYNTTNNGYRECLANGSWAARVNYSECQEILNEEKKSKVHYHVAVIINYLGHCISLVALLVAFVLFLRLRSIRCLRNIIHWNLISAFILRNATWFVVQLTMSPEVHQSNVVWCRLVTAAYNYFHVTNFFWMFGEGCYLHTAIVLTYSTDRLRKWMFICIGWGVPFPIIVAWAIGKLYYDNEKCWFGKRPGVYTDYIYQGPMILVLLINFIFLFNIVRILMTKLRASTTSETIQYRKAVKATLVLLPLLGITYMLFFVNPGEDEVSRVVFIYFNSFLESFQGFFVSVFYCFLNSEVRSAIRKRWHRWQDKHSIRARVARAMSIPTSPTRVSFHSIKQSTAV"},
  "source": "patent EP4847524A2",
  "about": "“FATTY ACID CONJUGATED CYCLIC PEPTIDES” (dated 2026)",
  "test_in_all_cases": "cAMP assay in transfected CHO-K1 cells",
  "key": {"rat CRF-R1 alpha": {"target": "rat CRF-R1 alpha (Rattus norvegicus, UniProt P35353)", "conditions": "read-out: CRFR1 (IC50 nM), mean of 3 data points (n=3)", "protocol": "(§1) cAMP was determined utilizing a DiscoverX HitHunter assay Enzyme Fragment Complementation (EF) technology purchased from Eurofins as described in the manufacturing instructions with some adjustments. IC50's were calculated from antagonist dose response curves utilizing interpolated cAMP levels and/or relative light unit (RLU) data. In addition, eXpress assay ready cAMP kits were also utilized with hCRF-R1 and hCRF-R2 division arrested cells according to the manufacturing instructions. Briefly, antagonist dilutions were prepared in assay buffer: Gibco Hank's Buffered Salt Solution (Gibco 30-410, HBSS) supplemented with + 10 mM HEPES Buffer (Gibco 15630-080), containing 6X Tween-20 (Gibco BP337-100; final concentration in wells 0.01%). After removal of the culture media in cells, assay buffer (30 µl) was added to each of the wells on the plate utilizing a multichannel pipettor (INTEGRA VIAFLO 300 µl). The various antagonist dilutions (7.5 µl) at 6X concentration were added to the wells according to the assay protocol plate map and the plate was incubated for 30 min at 37°C. To compare the effects of albumin on the antagonist IC50, assays were also performed by diluting the compounds as described above in assay buffer containing 0.1% [w:v] bovine serum albumin (BSA) or no BSA (Bovine Albumin Fraction V, Fatty Acid Free: MP Biomedicals, Cat. 152401, Lot. S8210). Immediately thereafter, 7.5 µl (6X) of agonist (hCRF for hCRF-R1, hUCN1 for hCRF-R2) was added at a final concentration of 1 nM/well; approximately EC80) followed by a further incubation for 30 min at 37°C. Following the incubation of the antagonists and agonists, 15 µl of Eurofins HitHunter cAMP antibody solution and 60 µl of the Working Detection Solution were added followed by a 1 h incubation at room temperature in the dark. Finally, 60 µl of cAMP Solution A was added followed by a further incubation overnight (approx. 18 h). The total final reaction volume was 180 µl/well. The resulting chemiluminescent signal was measured in a Tecan Spark luminometer.\n(§2) For transient transfections, plasmid constructs were supplied by GenScript for rat, cynomolgus monkey, and canine CRF-R1 alpha, and CRF-R2 beta subtypes, as well as human CRF-R1 alpha and CRF-R2 alpha, beta and gamma subtypes all cloned into a pCDNA3.1 (Neo^R) vector. Briefly, Chinese hamster ovary strain K1 (CHO-K1) parental cells were expanded from a liquid nitrogen-stored working bank vial (1.0E+6 cells) by thawing at 37°C for 60 seconds, followed by expansion in 30 ml CHO-K1 Complete Media in a T-225 flask. Cells were passaged at least once by aspirating-out used culture media and washing adherent cells once in phosphate buffered saline without divalent cations (Intermountain BSS-PBS-1X6), followed by dislodging the adherent cells using Enzyme-free cell dissociation buffer (EFDB, Millipore Sigma C5789) and subsequent continued culture in complete media.\n(§3) On Day 0, CHO-K1 parental cells were harvested when ~ 90% confluent, seeded into 6-well plates (Costar 3516) at approximately 400,000 cells/well, and cultured overnight in complete media. On Day +1 the cells were monitored for optimal confluence (60-75%), health, cell distribution and morphology, and the media was changed by aspiration with the addition of 2mL fresh complete media. Lipid:DNA complexes were prepared by either: (i) mixing 2.5 µg of plasmid DNA into 500 µl OptiMEM reduced serum media (Gibco Cat# 31985062) together with 9 µl of Lipofecamine LTX (Invitrogen™ Cat# 15338100) followed by incubation for 25 minutes at room temperature; or (ii) mixing 2.0 µg of plasmid DNA into 82 µl OptiMEM with 16 µl of FuGENE 6 (Promega Cat# E2691), at a 4:1 lipid:pDNA volume ratio, followed by incubation for 45 minutes at room temperature. Lipid:DNA complexes were subsequently added dropwise directly onto cells on the 6-well plate. […]"}, "rat CRF-R2 beta": {"target": "rat CRF-R2 beta (Rattus norvegicus, UniProt P47866)", "conditions": "read-out: CRFR2β (IC50 nM), mean of 3 data points (n=3)", "protocol": "as §1, §2, §3"}, "canine CRF-R2 beta": {"target": "canine CRF-R2 beta (Canis lupus familiaris, UniProt A0A8I3PB95)", "conditions": "read-out: CRFR2β (IC50 nM); Dog; mean of 3 data points (n=3)", "protocol": "as §1, §2, §3"}, "canine CRF-R1 alpha": {"target": "canine CRF-R1 alpha (Canis lupus familiaris, UniProt A0A8I3PHA9)", "conditions": "read-out: CRFR1 (IC50 nM); Dog; mean of 3 data points (n=3)", "protocol": "as §1, §2, §3"}, "human CRF-R2 gamma": {"target": "human CRF-R2 gamma (Homo sapiens, UniProt Q13324)", "conditions": "read-out: CRFR2γ (IC50 nM), mean of 3 data points (n=3)", "protocol": "as §1, §2, §3"}, "[1]": {"target": "cynomolgus monkey CRF-R2 beta (Macaca fascicularis, UniProt A0A2K5WS31)", "conditions": "read-out: CRFR2β (IC50 nM); Cyno; mean of 3 data points (n=3)", "protocol": "as §1, §2, §3"}, "human CRF-R2 alpha": {"target": "human CRF-R2 alpha (Homo sapiens, UniProt Q13324)", "conditions": "for IC50: mean of 3 data points (n=3)", "protocol": "as §1, §2, §3"}, "[2]": {"target": "cynomolgus monkey CRF-R1 alpha (Macaca fascicularis, UniProt A0A2K5WPT1)", "conditions": "read-out: CRFR1 (IC50 nM); Cyno; mean of 3 data points (n=3)", "protocol": "as §1, §2, §3"}},
  "note": "Where two headings read alike, the source gives them in different places.",
  "data": [
    {"substance": "Ac-Asp-Leu-Thr-D-Phe-His-Leu-Leu-Arg-Glu-Val-Leu-Glu-Nle-K*-Arg-Glu-Glu-Gln-cVal-Ala-Gln-E#-Ala-Glu-K#-Asn-Arg-Lys-Leu-Nle-Glu-cVal-Ala-CONH2", "values": [
      {"measurement": "IC50", "setting": "rat CRF-R1 alpha", "value": 1.4, "unit": "nM"},
      {"measurement": "IC50", "setting": "rat CRF-R2 beta", "value": 40, "unit": "nM"},
      {"measurement": "IC50", "setting": "canine CRF-R2 beta", "value": 24, "unit": "nM"},
      {"measurement": "IC50", "setting": "canine CRF-R1 alpha", "value": 2.4, "unit": "nM"},
      {"measurement": "IC50", "setting": "human CRF-R2 gamma", "value": 3.8, "unit": "nM"},
      {"measurement": "IC50", "setting": "[1]", "value": 24, "unit": "nM"},
      {"measurement": "selectivity for CRF1 over CRFR2α", "setting": "human CRF-R2 alpha; ratio of cAMP IC50 values", "value": "approximately 10 times"},
      {"measurement": "IC50", "setting": "human CRF-R2 alpha; read-out: CRFR2α (IC50 nM), Human", "value": 16, "unit": "nM"},
      {"measurement": "IC50", "setting": "human CRF-R2 alpha; read-out: IC50 for CRFR2α, Table 16", "value": 16, "unit": "nM"},
      {"measurement": "IC50", "setting": "[2]", "value": 1.2, "unit": "nM"}
    ]}
  ]
}
